We go through one compound from patent EP0889878B1 (Merck Frosst Canada & Co., priority 1996, dated 1997).

Chains of the proteins cited; added tags and fusions are not shown. Residues count along the entry.
UniProt P23219, 24-599: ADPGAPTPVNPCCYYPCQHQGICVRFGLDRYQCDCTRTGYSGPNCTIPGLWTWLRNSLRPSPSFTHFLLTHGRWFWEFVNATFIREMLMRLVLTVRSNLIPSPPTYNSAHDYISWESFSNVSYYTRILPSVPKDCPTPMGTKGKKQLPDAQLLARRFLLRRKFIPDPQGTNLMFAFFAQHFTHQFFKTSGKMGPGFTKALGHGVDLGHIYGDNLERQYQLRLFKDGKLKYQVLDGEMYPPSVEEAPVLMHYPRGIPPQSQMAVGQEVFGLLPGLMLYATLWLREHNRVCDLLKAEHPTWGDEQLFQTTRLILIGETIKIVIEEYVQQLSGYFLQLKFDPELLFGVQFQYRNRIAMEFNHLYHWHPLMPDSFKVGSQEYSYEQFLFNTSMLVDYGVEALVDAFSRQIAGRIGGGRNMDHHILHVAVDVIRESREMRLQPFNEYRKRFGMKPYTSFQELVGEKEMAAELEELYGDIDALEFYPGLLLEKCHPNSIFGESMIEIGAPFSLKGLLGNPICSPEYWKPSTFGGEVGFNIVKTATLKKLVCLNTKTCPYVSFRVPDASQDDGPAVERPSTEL

This experiment addresses T1, COX-1 (Homo sapiens, UniProt P23219).
T1 construct: human U-937 cells (which specifically express COX-1); endogenous in cells; host or cells: human U-937 cells
Put plainly: Whole cell cyclooxygenase assay in U-937 cells (COX-1, inhibition of PGE2 production). It is filed as cell-based.

SMILES strings stand for the structures.

Compound `CC1(C)C(=O)C(c2ccccc2)=C1c1ccc(S(C)(=O)=O)cc1` [Example 16, 4,4-Dimethyl-3-(4-methylsulfonylphenyl)-2-phenyl-2-cyclobuten-1-one] displayed an IC50 of 520 nM.

Broadly, the IC50 is the point on the concentration scale where inhibition reaches its midpoint. A lower IC50 goes with inhibition by little substance.
